Measured values from paper PMC3673938, “Two Distinct Calmodulin Binding Sites in the Third Intracellular Loop and Carboxyl Tail of Angiotensin II (AT1A) Receptor” (PLoS ONE, 2013).

Test system: AT1A receptor-CaM interaction
Experiment: BRET between AT1A receptor-eYFP and RLuc-CaM / CaM-RLuc in HEK293 cells
Assay type: cell-based, Human Embryonic Kidney 293 (HEK293) cells
Settings: HEK293 cells lacking RLuc-CaM or CaM-RLuc; W7 (50 mM) for 20 minutes

For `NCCCCCCNS(=O)(=O)c1cccc2c(Cl)cccc12` [W7, N-(6-aminohexyl)-5-chloro-1-naphthalenesulfonamide], the “effect on BRET signal of RLuc (control) transfectants” value was “not affected”.
